The test system of this test is glutamate transport. Nature of the test: Functional glutamate transport in synaptosomal preparations from brain cortex of treated mice. The format is in vivo, mouse. Conditions: WT mice, 12.5 or 25 mg/kg/day oral, 10 days.

The values that follow come from US20120094295A1, “NEURODEGENERATIVE DISEASE DIAGNOSTIC COMPOSITIONS AND METHODS OF USE” (The Johns Hopkins University, priority 2008, published 2012).

In the case of `CS(=O)(=O)c1ccc([C@@H](O)[C@@H](CO)NC(=O)C(Cl)Cl)cc1` [TAP, thiamphenicol], the “functional glutamate transport in cortical synaptosomal preparations” value is “TAP-dependent increase in functional glutamate transport”.
